The values below come from US5624932A (priority 1995, dated 1997).

Experiment [1] concerns dorsal root ganglion (DRG) neurons. The settings on record: for Alteration of action potential duration, opioid at low concentration: < nM; for Alteration of action potential duration, opioid at high concentration: μM.
Experiment [2] deals with chronic opioid-treated DRG neurons. The settings on record: for effect on APD of chronic DADLE-treated DRG neuron: 1 μM DADLE present.
Setting [3] is: listed as dynorphin (amino acids 1-13).
Where [4] appears, read: listed as dynorphin (amino acids 1-17).

Where two headings read alike, the source gives them in different places.

Consider `CSCC[C@H](NC(=O)[C@H](Cc1ccccc1)NC(=O)CNC(=O)CNC(=O)[C@@H](N)Cc1ccc(O)cc1)C(=O)O`, for which, in experiment [1], the “Alteration of action potential duration, opioid at low concentration” value (“Alteration … at low concentration” for short) was “Prolongation” and the “Alteration of action potential duration, opioid at high concentration” value (“Alteration … at high concentration” below) is given as “Shortening”.
For 3-endorphin the same measures were “Prolongation” and “Shortening”.
Take “Tyr--Gly--Gly--Phe--Leu--Arg--Arg--Ile--Arg--Pro--Lys--Leu--Lys”: the “effect on APD of chronic DADLE-treated DRG neuron” value in experiment [2] (1 fM) was “prolonged”; in experiment [2] (raised to 1 nM and 1 μM), “further prolonged”. Besides, the “concentration effective at prolonging the APD after chronic opioid treatment” value in experiment [2] (chronic opioid-treated) is given as “fM”. Moreover, the “Alteration … at low concentration” value in experiment [1] was “Prolongation”; in experiment [1] (setting [3]), “excitatory APD-prolonging”. The “dose-response effect on the APD of naive DRG neurons” value in experiment [1] (fM-μM, FIG. 1, FIG. 2) is given as “dose-dependent prolongation of the APD”. Besides, the “concentration required to shorten the APD” value in experiment [1] (naive, n=35) is “ca. μM”. Also, the “concentration that prolongs the APD of naive DRG neurons” value in experiment [1] (naive, listed as Dyn (1-13)) is “fM-nM”; in experiment [1] (naive, listed as Dyn (amino acid 1-13)) it was “pM-nM”. Besides, the “Alteration … at high concentration” value is reported as “Shortening” in experiment [1] and “inhibitory APD-shortening” in experiment [1] (setting [3]).
As for “Tyr--Gly--Gly--Phe--Leu--Arg--Arg--Ile--Arg--Pro--Lys--Leu--Lys--Trp--Asp--Asn--Gln”, in experiment [1], the “Alteration … at low concentration” value was “Prolongation” and the “Alteration … at high concentration” value was “Shortening”. In experiment [1] (setting [4]), the “Alteration … at low concentration” value is recorded as “excitatory APD-prolonging” and the “Alteration … at high concentration” value was “inhibitory APD-shortening”.
